Consider one compound from the OPERA property sets (Mansouri et al. 2018).

For orientation: solubility means the dissolved amount per volume that the medium holds. Low values mean a poorly soluble substance, high ones a readily soluble substance.

Values after ≈ are worked out from the molar mass of the structure shown.

`COC(=O)N(C)C(=O)CSP(C)(=S)OC` (stereo unspecified) showed a solubility of 11.1 mM (≈ 3000 µg/mL). This lies in the millimolar range.
